According to US11919883B2, “Metalloenzyme inhibitor compounds” (Ji Xing Pharmaceuticals Hong Kong Limited, priority 2016, dated 2024):
pIC50: −log10 of the molar value. Read-outs that look alike come from different tables or passages of the source.

Sequences of proteins named here, by UniProt entry; tags and fusion partners are left off. Residues count along the entry.
UniProt P19099, 25-503 limits assumed: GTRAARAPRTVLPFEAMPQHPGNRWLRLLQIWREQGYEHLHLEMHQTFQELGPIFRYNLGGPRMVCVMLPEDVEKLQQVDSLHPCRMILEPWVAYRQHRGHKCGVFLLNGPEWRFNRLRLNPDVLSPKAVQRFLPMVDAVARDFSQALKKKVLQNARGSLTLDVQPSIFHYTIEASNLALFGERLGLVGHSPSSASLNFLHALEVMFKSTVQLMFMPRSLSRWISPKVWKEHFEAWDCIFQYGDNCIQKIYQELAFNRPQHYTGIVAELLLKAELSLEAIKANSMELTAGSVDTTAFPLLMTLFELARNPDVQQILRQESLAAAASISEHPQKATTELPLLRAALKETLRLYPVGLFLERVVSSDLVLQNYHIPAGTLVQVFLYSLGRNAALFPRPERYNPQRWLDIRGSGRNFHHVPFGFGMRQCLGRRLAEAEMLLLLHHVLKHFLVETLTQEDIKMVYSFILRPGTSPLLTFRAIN
UniProt P15538, 25-503 limits assumed: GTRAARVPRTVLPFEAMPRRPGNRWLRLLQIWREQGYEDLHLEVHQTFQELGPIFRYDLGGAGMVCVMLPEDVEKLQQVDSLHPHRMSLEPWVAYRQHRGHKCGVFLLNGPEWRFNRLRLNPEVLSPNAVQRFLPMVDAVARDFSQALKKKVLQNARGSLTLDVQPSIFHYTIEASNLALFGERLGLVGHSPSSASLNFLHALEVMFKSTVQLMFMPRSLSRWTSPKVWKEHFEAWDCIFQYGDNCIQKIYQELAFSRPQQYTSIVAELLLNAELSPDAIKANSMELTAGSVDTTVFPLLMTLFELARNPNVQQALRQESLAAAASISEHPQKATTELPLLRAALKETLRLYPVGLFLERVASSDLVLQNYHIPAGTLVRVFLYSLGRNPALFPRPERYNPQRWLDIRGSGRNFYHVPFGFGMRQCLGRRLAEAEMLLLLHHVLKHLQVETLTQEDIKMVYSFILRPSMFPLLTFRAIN

Tests used:
[1] = Cyno liver microsome stability; assay type: in vitro ADME, cynomolgus monkey; settings: % Compound remaining at 65 min in cyno liver microsomes
[2] = Rat liver microsome stability; assay type: in vitro ADME; settings: % Compound remaining at 65 min in rat liver microsomes
[3] = target: recombinant human CYP11B2 (Homo sapiens, UniProt P19099); test: CYP11B2 enzyme assay, enzyme enriched microsomes from V79-4 cells, aldosterone by LC-MS; assay type: biochemical; settings: for Selectivity: CYP11B1 IC50/CYP11B2 IC50
[4] = target: recombinant human CYP11B1 (Homo sapiens, UniProt P15538); test: CYP11B1 enzyme assay, enzyme enriched microsomes from V79-4 cells, cortisol by LC-MS; assay type: biochemical; settings: for inhibition of CYP11B1 / selectivity for CYP11B2 over CYP11B1: pyridine replacing the pyrimidine of compounds of Formula I
[5] = read-out: CYP11B2 IC50, Table 3 comparison
[6] = read-out: CYP11B1 IC50, Table 3 comparison

| Compound | Cyno LM Stability [1] | Rat LM Stability [2] | Selectivity [3] | pIC50 [3, 5] | inhibition of CYP11B1 / selectivity for CYP11B2 over CYP11B1 [4] | pIC50 [4, 6] | pIC50 ([3]; read-out: hCYP11B2 IC50, IC50 ranges, run at Km of 11-deoxycorticosterone) | pIC50 ([4]; read-out: hCYP11B1 IC50, IC50 ranges, run at Km of 11-deoxycortisol) |
| --- | --- | --- | --- | --- | --- | --- | --- | --- |
| Cc1ccncc1-c1nc2cc(F)c(F)cc2n1C1CC1 | 25% | 22% | – | – | – | – | – | – |
| Fc1ccc2nc(-c3cccnc3)n(C3CC3)c2c1 | 1% | 12% | 192 | 8.30 | increased inhibition of CYP11B1 and/or a significant loss of selectivity for CYP11B2 over CYP11B1 | 6.07 | – | – |
| Fc1cc2nc(-c3cnccc3C(F)(F)F)n(C3CC3)c2cc1F | 58% | 52% | 115 | 7.44 | increased inhibition of CYP11B1 and/or a significant loss of selectivity for CYP11B2 over CYP11B1 | 5.38 | – | – |
| Fc1cc2nc(-c3cncnc3)n(C3CC3)c2cc1Cl | – | – | – | – | – | – | 7.00 to 9.00 | 5.00 to 6.00 |
